Bioassay records as filed in PubChem.
Most compounds without a hit are left out; they make up all but 2.1% or so of the library.
miR122 inh: miR-122 Renilla sensor signal increase in Huh7, primary screen, miR-122 inhibitor project, cell-based, single point, plate reader; activation (reporter increase), % at 12.5 µM; hit rate 0.3% among 340,000; Huh7 miR-122 Renilla luciferase sensor, 48 h; neutral wells = 0, positive control = 100;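 active = mean replicate activation score at least 90 and every replicate individually at or above 90; inconclusive = only one of the two criteria met; inactive = neither criterion met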;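 note: higher luciferase means less miR-122 activity so hits act as miR-122 inhibitors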
MITF act: activators of MITF-driven TRPM1 promoter reporter, primary screen, cell-based, SK-MEL-5, luciferase, single point; activation, % at 12.5 µM; SK-MEL-5 TRPM1-promoter luciferase, 24 h; % of positive control, neutral wells = 0; hit rate 0.75% among 300,000; AID 588334, 2011;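 active = mean activation of at least 80% with every replicate also reaching 80%; inconclusive = mean reaches 80% but some replicate falls short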;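 note: 0% = neutral control wells and 100% = parthenolide positive control wells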
PGC1a acetyl inh: inhibitors of PGC1a acetylation signal, primary screen, cell-based, U2OS, AlphaScreen, inhibitor mode. inhibition, % at 15.6 µM. hit rate 0.17% among 350,000. AlphaScreen anti-acetyl-lysine; with virally co-expressed GCN5 acetyltransferase. AID 651687, 2012;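 active = every replicate shows inhibition of at least 40%; inconclusive = mean inhibition at least 40% but some replicate below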;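 note: 0% = neutral control wells and 100% = positive control wells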
MITF TRPM1 inh: inhibitors of MITF-dependent TRPM1 promoter reporter, primary screen, cell-based, SK-MEL-5, single point, luciferase; AID 488899, 2010; hit rate 0.83% among 330,000; inhibition, % at 12.5 µM; SK-MEL-5 TRPM1 promoter luciferase, 24 h;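 active = mean inhibition across replicates of 60% or more, whatever share of single replicates reaches that level; inconclusive = some that reach 60%, reason not given; inactive = mean inhibition across replicates below 60%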
Wnt act: Wnt/beta-catenin pathway activators, primary screen, cell-based, plate reader, single point. Wnt/beta-catenin reporter cell assay, activator. AID 743398, 2014. hit rate 1.2% among 300,000. activation, % at 9.35 µM; in the data active = activation above about 30%, passing the limit was not always enough; inconclusive = no clear call, values can overlap the other calls;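 note: 0% = neutral control wells and 100% = positive control wells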
Yeast UUG start: modulators of yeast start codon fidelity, primary screen, whole organism, S. cerevisiae, single point, plate reader; S. cerevisiae UUG-firefly luciferase reporter, luminescence/redox ratio; activity score, % at 18.7 µM; actives 0.13% (n = 350,000); AID 602363, 2012;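 active = replicate mean at a twofold rise or more, about +100% in these data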;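 also: firefly luciferase made from a UUG start codon reports start codon fidelity; reporter light over untreated wells divided by growth signal over untreated wells; some hits fall short of that in this replicate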
* hit, by the source's call; ? = inconclusive; . = not tested or not shown; [ ] = remark or other dose.

Field names: A = miR122 inh; B = MITF act; C = PGC1a acetyl inh; D = MITF TRPM1 inh; E = Wnt act; F = Yeast UUG start
COc1ccc(/C=C2/SC(=S)N(CCCC(=O)Nc3cccc(O)c3)C2=O)cc1
  A = 8.2; B = -6.6; C = 0.8; D = 8.3; E = 6.1; F = -7.5
O=C(CCN1C(=O)/C(=C/c2ccccc2)SC1=S)Nc1ccccn1
  A = -6.5; B = 6.2; C = 35.9; D = -3.6; E = -0.7; F = -14.1
COc1ccc(/C=C2\SC(=S)N(CC(=O)OCC(=O)Nc3cc(Cl)cc(Cl)c3)C2=O)cc1
  A = .; B = 4.6; C = .; D = 0.4; E = 37.8*; F = .
O=C(NC1CCC1)[C@@H]1[C@@H](CO)[C@@H]2Cn3c(ccc(-c4ccccc4)c3=O)[C@@H]2N1CCc1ccccc1
  A = -2.8[16.7 µM]; B = .; C = -7.7; D = .; E = .; F = .
COc1cc(C)c(C(C)C)cc1S(=O)(=O)NC1CC(C)(C)NC(C)(C)C1
  A = 127.5*; B = 4.2; C = .; D = -3.1; E = -0.4; F = -12.0
CCOc1cc(C)c(Cl)cc1S(=O)(=O)NC1CC(C)(C)NC(C)(C)C1
  A = 180.8*; B = -3.4; C = .; D = -2.5; E = .; F = .
COc1ccc(S(=O)(=O)NC2CC(C)(C)NC(C)(C)C2)c(C)c1C
  A = .; B = .; C = .; D = .; E = -2.3; F = .
OCCNc1c2ccccc2nc2c(F)c(F)c(F)c(F)c12
  A = .; B = -80.9; C = .; D = 80.6*; E = 251.3*; F = .
Cc1c2ccccc2nc2c(F)c(NCCO)c(F)c(F)c12
  A = 0.5; B = 31.9; C = -5.8; D = -25.0; E = -0.5; F = -15.8
COc1cc(CN2CC3(CCN(C(=O)c4cccnc4)CC3)c3c([nH]c4cc(OC)ccc34)[C@@H]2CO)cc(OC)c1
  A = .; B = .; C = 1.0; D = .; E = .; F = .

Continuation:
Field names: A = miR122 inh; B = MITF act; C = PGC1a acetyl inh; D = MITF TRPM1 inh; E = Wnt act; F = Yeast UUG start
COc1cccc(NC(=O)N[C@@H]2CC[C@H](CC(=O)Nc3ccc(-c4ccccc4)cc3)O[C@@H]2CO)c1
  A = -29.1[16.7 µM]; B = .; C = -1.8; D = .; E = .; F = -12.3
O=C(Nc1cccc(Cl)c1)Nc1nnc(CSCCOc2ccc(Cl)cc2)s1
  A = -14.1; B = -67.4; C = -5.4; D = 67.5*; E = .; F = -9.3
Cc1ccc(NC(=O)Nc2nnc(CSCCOc3ccc(Cl)cc3)s2)cc1
  A = .; B = -7.7; C = .; D = 9.2; E = -0.8; F = .
COC(=O)c1nn(-c2ccc3c(c2)CCN3C(C)=O)cc1O
  A = 2.0; B = -71.8; C = 4.7; D = 72.2*; E = .; F = -88.0
C[C@H]1CN([C@@H](C)CO)C(=O)c2c(c3ccccc3n2C)-c2ccccc2CO[C@H]1CN(C)Cc1ccc(Oc2ccccc2)cc1
  A = .; B = .; C = -15.2; D = .; E = .; F = .
C[C@@H]1CN([C@@H](C)CO)C(=O)c2cc(-c3ccc(F)cc3)cnc2O[C@H]1CN(C)CC1CCCC1
  A = -10.7[16.7 µM]; B = .; C = -12.2; D = .; E = .; F = 9.1
CCCCC[C@@H](/C=C/C1C(=O)C=C[C@H]1C/C=C\CCCC(=O)OC)OC(C)=O (stereo not given in full)
  A = -6.1; B = -67.6; C = -12.2; D = 67.6*; E = 16.4; F = -1.1
COCC(=O)Nc1ccc2c(c1)C(=O)N(C)C[C@H](OC)[C@H](C)CN(Cc1ccccc1OC)[C@@H](C)CO2
  A = 1.5[16.7 µM]; B = .; C = -2.3; D = .; E = .; F = 1.3
O=C(CCl)N1N=C(c2ccco2)CC1c1cccs1 (stereo not given)
  A = -3.8; B = -72.9; C = -1.7; D = 74.5*; E = .; F = -4.7
Cc1ccc(C2=NN(C(=O)CCl)C(c3cccs3)C2)o1 (stereo not given)
  A = .; B = -73.5; C = .; D = 73.2*; E = -1.6; F = .

Quoted at random: three records from the list
Field names: A = miR122 inh; B = MITF act; C = PGC1a acetyl inh; D = MITF TRPM1 inh; E = Wnt act; F = Yeast UUG start
COC(=O)c1nn(-c2ccc3c(c2)CCN3C(C)=O)cc1O
  A = 2.0; B = -71.8; C = 4.7; D = 72.2*; E = .; F = -88.0
COc1cccc(NC(=O)N[C@@H]2CC[C@H](CC(=O)Nc3ccc(-c4ccccc4)cc3)O[C@@H]2CO)c1
  A = -29.1[16.7 µM]; B = .; C = -1.8; D = .; E = .; F = -12.3
COc1ccc(/C=C2/SC(=S)N(CCCC(=O)Nc3cccc(O)c3)C2=O)cc1
  A = 8.2; B = -6.6; C = 0.8; D = 8.3; E = 6.1; F = -7.5

The list continues.
Field names: A = miR122 inh; B = MITF act; C = PGC1a acetyl inh; D = MITF TRPM1 inh; E = Wnt act; F = Yeast UUG start
CC(=O)N1N=C(c2ccco2)CC1c1cccs1 (stereo not given)
  A = -5.3; B = -8.9; C = 0.3; D = 10.8; E = .; F = -1.3
O=C(CN1CCOCC1)N[C@H]1CC[C@@H](CCn2cc(C3CCCCC3)nn2)O[C@@H]1CO
  A = .; B = .; C = -0.2; D = .; E = .; F = .
C[C@@H]1CCCCO[C@H](CN(C)Cc2ccc(C(F)(F)F)cc2)[C@@H](C)CN([C@@H](C)CO)C(=O)c2cc(NC(=O)CCCN(C)C)ccc2O1
  A = 8.4[16.7 µM]; B = .; C = 5.6; D = .; E = .; F = 3.6
CCc1ccccc1Nc1nc(N)nc(CSCC(=O)Nc2ccc(C)c(C)c2)n1
  A = -4.5; B = -8.4; C = 9.9; D = 7.3; E = 57.3*; F = -19.7
O=[N+]([O-])c1ccc(-c2nc(C(Cl)Cl)c3ccccc3n2)cc1
  A = -17.1; B = .; C = 3.4; D = 66.2*; E = -2.2; F = -9.1
CN(Cc1ccccc1)c1nc(-c2ccc([N+](=O)[O-])cc2)nc2ccccc12
  A = -0.8; B = 3.5; C = 9.7; D = 2.1; E = .; F = 2.2
COc1ccc2c3c(n(C)c2c1)[C@H](CO)N(C(=O)Nc1ccc(F)cc1)CC31CCN(C(=O)NC2CCCC2)CC1
  A = .; B = .; C = -4.6; D = .; E = .; F = .
Cn1c(N)c(S(=O)(=O)N2CCCC2)c(=O)n(C)c1=O
  A = -5.2; B = 0.7; C = 0.9; D = 1.9; E = 30.3*; F = -0.1
Cc1c(S(=O)(=O)N2CCCC2)c(=O)n(C)c(=O)n1C
  A = .; B = -2.4; C = .; D = 4.4; E = -0.6; F = -14.1
Cc1ccnc(NC(=O)COc2ccccc2[N+](=O)[O-])c1
  A = .; B = 24.9; C = .; D = -20.0; E = .; F = .

Other records follow.
Field names: A = miR122 inh; B = MITF act; C = PGC1a acetyl inh; D = MITF TRPM1 inh; E = Wnt act; F = Yeast UUG start
C/C(=N\NC(=O)COc1ccccc1[N+](=O)[O-])c1cccs1
  A = 1.9; B = 63.8; C = 3.4; D = -53.0; E = 35.0*; F = -10.6
O=C(COc1ccccc1[N+](=O)[O-])Nc1ccc(Br)cc1
  A = 0.6; B = 80.0; C = 0.8; D = -79.7; E = 48.3*; F = -8.7
Cc1ccc(NC(=O)COc2ccccc2[N+](=O)[O-])nc1
  A = -8.2; B = -0.3; C = 4.4; D = -1.1; E = 53.9*; F = -30.3
COc1ccc(NC(=O)N(C)C[C@H]2Oc3c(NC(=O)c4ccncc4)cccc3C(=O)N([C@@H](C)CO)C[C@@H]2C)cc1
  A = 3.4[16.7 µM]; B = .; C = 7.7; D = .; E = .; F = 7.1
CCC(=O)Nc1cccc(C(=O)/C=C/c2ccc(F)cc2)c1
  A = .; B = -61.5; C = .; D = 62.1*; E = 25.0; F = .
O=C(C[C@H]1CC[C@@H]2[C@H](COC[C@H](O)CN2Cc2ccccc2F)O1)NCc1ccccc1F
  A = -8.1[16.7 µM]; B = .; C = 4.5; D = .; E = .; F = 1.1
O=C1Nc2ccc(S(=O)(=O)NCCC3=CCCCC3)c3cccc1c23
  A = 116.7*; B = -9.6; C = 6.1; D = 8.0; E = .; F = 1.5
O=S(=O)(NCCC1=CCCCC1)c1cccc(Br)c1
  A = .; B = 8.0; C = .; D = -6.0; E = -0.1; F = .
CCNS(=O)(=O)c1ccc2c3c(cccc13)C(=O)N2
  A = 148.4*; B = .; C = 1.5; D = 1.4; E = -0.9; F = -16.5
O=C1Nc2ccc(S(=O)(=O)NCCCO)c3cccc1c23
  A = 82.3; B = .; C = .; D = -3.8; E = 0.9; F = -15.5

New compounds follow.
Field names: A = miR122 inh; B = MITF act; C = PGC1a acetyl inh; D = MITF TRPM1 inh; E = Wnt act; F = Yeast UUG start
O=S(=O)(NCCC1=CCCCC1)c1c(Cl)cccc1Cl
  A = 111.2*; B = -4.1; C = -30.7; D = 8.1; E = 3.7; F = -6.2
O=C(C[C@H]1CC[C@H]2[C@@H](COC[C@H](O)CN2S(=O)(=O)c2ccccc2)O1)NCc1ccc2c(c1)OCO2
  A = -2.4[16.7 µM]; B = .; C = 3.0; D = .; E = .; F = 8.1
C[C@@H]1CN([C@H](C)CO)C(=O)Cc2cc(NC(=O)Nc3ccc4c(c3)OCO4)ccc2O[C@@H]1CN(C)C(=O)Nc1ccc(F)cc1
  A = -11.6[16.7 µM]; B = .; C = 0.3; D = .; E = .; F = 4.2
C/C(=N\Nc1nncc2ccccc12)c1ccc(OCC(=O)N(C)C)cc1
  A = .; B = ?; C = .; D = -85.3; E = 7.4; F = -18.4
CC/C(=N\Nc1nncc2ccccc12)c1ccc(F)cc1
  A = -6.6; B = 88.4*; C = 13.7; D = -84.5; E = 19.7; F = -0.3
C[C@@H](O)C#Cc1cnc2c(c1)C(=O)N([C@@H](C)CO)C[C@H](C)[C@@H](CN(C)C(=O)c1ccccc1F)O2
  A = -0.8[16.7 µM]; B = .; C = 8.9; D = .; E = .; F = -1.6
Cc1ccc(Sc2c([N+](=O)[O-])c(=O)n(C)c3ccccc23)cc1
  A = .; B = .; C = .; D = 20.7; E = 32.3*; F = -10.5
Cc1ccc(Sc2c(O)c3ccccc3n(C)c2=O)cc1
  A = 2.4; B = 6.8; C = -4.6; D = -9.0; E = -5.4; F = .
